The text below walks through data of article PMC12497685, “Anticoronavirus Isoquinoline Alkaloids: Unraveling the Secrets of Their Structure–Activity Relationship” (Influenza and Other Respiratory Viruses, 2025).

This data set relates to Huh7 cells. Conditions: at 10 μM, compared with vehicle control, n = 1.

Where “and” joins values, the source holds several entries; their conditions need not be identical. Identical values can stand only once.

As to (+)‐thalictricavine [Compound 27], the “Cytotoxicity to the host Huh7 cells %” value is 35% and 35%–40%.
